From patent publication EP1590666B1, “COMPOSITIONS AND METHODS FOR ENHANCING APOPTOSIS” (GENENTECH, INC., priority 2003, dated 2004)

Amino acid sequences for entries named in this document (tags omitted). Residues count along the entry.
UniProt P98170, 124-240 C202A/C213G: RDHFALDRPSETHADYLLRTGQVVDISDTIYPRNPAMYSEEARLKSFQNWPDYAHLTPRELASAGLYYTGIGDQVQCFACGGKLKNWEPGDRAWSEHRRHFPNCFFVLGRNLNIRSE
UniProt P98170, 241-356: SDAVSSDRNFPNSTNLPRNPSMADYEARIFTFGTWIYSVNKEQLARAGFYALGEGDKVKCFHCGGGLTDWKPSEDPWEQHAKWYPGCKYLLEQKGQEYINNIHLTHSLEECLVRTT

Tests used:
Experiment in all cases: fluorescence polarization-based competition assay
Assay type in all cases: binding
[1] = target: T1, ML-IAP-BIR (Homo sapiens, UniProt Q96CA5)
T1 construct: made in house; host or cells: Escherichia coli BL21 (DE3)
T1 sequence (Q96CA5 63-179): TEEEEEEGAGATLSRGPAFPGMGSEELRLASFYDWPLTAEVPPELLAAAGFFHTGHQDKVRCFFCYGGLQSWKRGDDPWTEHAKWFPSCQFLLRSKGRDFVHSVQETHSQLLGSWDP
Protocol: (§1) The apparent Kd values can be determined from the EC50 values.
(§2) The apparent Kd values were determined from the EC50 values. […] Samples were read after a 10-minute incubation.

[2] = target: T2, XIAP-BIR2 (Homo sapiens, UniProt P98170, C202A/C213G)
T2 construct: X-IAP BIR2 (amino acid residues 124-240 with mutations C202A and C213G); made in house; host or cells: Escherichia coli BL21 (DE3)
Protocol: as §1, §2

[3] = target: XIAP-BIR3 (Homo sapiens, UniProt P98170); design: X-IAP BIR3 (amino acids residues 241-356); made in house; host or cells: Escherichia coli BL21 (DE3)
Protocol: as §1, §2

[4] = Table 4, P4 amino acid/phenylethylamine scan

| SMILES | Ki [1] [µM] | Ki ([2]; Table 3, positional scanning) [µM] | Ki [2, 4] [µM] | Ki [3] [µM] |
| --- | --- | --- | --- | --- |
| CC[C@H](C)[C@H](NC(=O)[C@H](CC(C)C)NC(=O)[C@@H](NC(=O)[C@H](C)N)C(C)C)C(=O)N[C@@H](C)C(=O)N[C@@H](CCC(N)=O)C(=O)N[C@@H](CCCCN)C(=O)N[C@@H](CO)C(=O)N[C@@H](CCC(=O)O)C(=O)O | 3.5 | 83.9 |  |  |
| CC(C)[C@H](NC(=O)[C@H](C)N)C(=O)N1CCC[C@H]1C(=O)N[C@@H](CO)[C@@H](O)c1ccccc1 [AVPX25] |  |  | 13 |  |
| CC(C)[C@H](NC(=O)[C@H](C)N)C(=O)N1CCC[C@H]1C(=O)NCC(c1ccccc1)c1ccccc1 [AVPX24] |  |  | 6.4 |  |
| CC(C)[C@H](NC(=O)[C@H](C)N)C(=O)N1CCC[C@H]1C(=O)NCCc1cccc(C(F)(F)F)c1 [AVPX26] |  |  | 6.4 |  |
| CC[C@H](C)[C@H](NC(=O)[C@@H]1CCCN1C(=O)[C@@H]1CCCN1C(=O)[C@H](C)N)C(=O)N[C@@H](C)C(=O)N[C@@H](CCC(N)=O)C(=O)N[C@@H](CCCCN)C(=O)N[C@@H](CO)C(=O)N[C@@H](CCC(=O)O)C(=O)O | > 230 | > 300 |  | > 415 |
| CC[C@H](C)[C@H](NC(=O)[C@@H]1CCCN1C(=O)[C@H](CCCNC(=N)N)NC(=O)[C@H](C)N)C(=O)N[C@@H](C)C(=O)N[C@@H](CCC(N)=O)C(=O)N[C@@H](CCCCN)C(=O)N[C@@H](CO)C(=O)N[C@@H](CCC(=O)O)C(=O)O | 0.73 | 68.7 |  |  |
| CC(C)[C@H](NC(=O)[C@H](C)NC(=O)[C@H](Cc1ccccc1)NC(=O)[C@@H]1CCCN1C(=O)[C@@H](NC(=O)[C@H](C)N)C(C)C)C(=O)N[C@@H](CCCCN)C(=O)N[C@@H](CO)C(=O)N[C@@H](CCC(=O)O)C(=O)O | 0.16 | 14.7 |  | 0.39 |
| CC(C)[C@H](NC(=O)[C@H](C)N)C(=O)N1CCC[C@H]1C(=O)NC[C@H](O)c1ccccc1 [AVPX33] |  |  | 9.4 |  |
| CC[C@H](C)[C@H](NC(=O)[C@@H]1CCCN1C(=O)CNC(=O)[C@H](C)N)C(=O)N[C@@H](C)C(=O)N[C@@H](CCC(N)=O)C(=O)N[C@@H](CCCCN)C(=O)N[C@@H](CO)C(=O)N[C@@H](CCC(=O)O)C(=O)O | 23.9 | > 300 |  |  |
| COc1cccc(C[C@H](NC(=O)[C@@H]2CCCN2C(=O)[C@@H](NC(=O)[C@H](C)N)C(C)C)C(=O)N[C@@H](C)C(=O)N[C@@H](CCC(N)=O)C(=O)N[C@@H](CCCCN)C(=O)N[C@@H](CO)C(=O)N[C@@H](CCC(=O)O)C(=O)O)c1 [AVPX5AQKSE] | 0.52 | 13.3 |  | 0.7 |
| CC[C@H](C)[C@H](NC(=O)[C@@H]1CCCN1C(=O)[C@H](CCCCN)NC(=O)[C@H](C)N)C(=O)N[C@@H](C)C(=O)N[C@@H](CCC(N)=O)C(=O)N[C@@H](CCCCN)C(=O)N[C@@H](CO)C(=O)N[C@@H](CCC(=O)O)C(=O)O | 1.9 | 83.9 |  |  |
| COc1ccc(Br)cc1CCNC(=O)[C@@H]1CCCN1C(=O)[C@@H](NC(=O)[C@H](C)N)C(C)C [AVPX36] |  |  | 11.9 |  |
| CCOc1cccc(CCNC(=O)[C@@H]2CCCN2C(=O)[C@@H](NC(=O)[C@H](C)N)C(C)C)c1 [AVPX34] |  |  | 5.3 |  |
| CC(C)[C@H](NC(=O)[C@H](C)N)C(=O)N1CCC[C@H]1C(=O)N[C@@H](CCc1ccccc1)C(=O)N[C@@H](C)C(=O)N[C@@H](CCC(N)=O)C(=O)N[C@@H](CCCCN)C(=O)N[C@@H](CO)C(=O)N[C@@H](CCC(=O)O)C(=O)O [AVPX12AQKSE] | 0.63 | 6.7 |  | 4.6 |
| CC(C)[C@H](NC(=O)[C@H](C)N)C(=O)N1CCC[C@H]1C(=O)N[C@@H](Cc1ccc([N+](=O)[O-])cc1)C(=O)N[C@@H](C)C(=O)N[C@@H](CCC(N)=O)C(=O)N[C@@H](CCCCN)C(=O)N[C@@H](CO)C(=O)N[C@@H](CCC(=O)O)C(=O)O [AVPX3AQKSE] | 1 | 51.6 |  | 1.3 |
| COC[C@H](Cc1ccccc1)NC(=O)[C@@H]1CCCN1C(=O)[C@@H](NC(=O)[C@H](C)N)C(C)C [AVPX38] |  |  | 6.8 |  |
| CC(C)[C@H](NC(=O)[C@H](C)N)C(=O)N1CCC[C@H]1C(=O)N[C@H](CO)[C@H](O)c1ccccc1 [AVPX27] |  |  | 5.5 |  |
| CC(C)[C@H](NC(=O)[C@H](C)N)C(=O)N1CCC[C@H]1C(=O)NCCc1cccc(Cl)c1 [AVPX39] |  |  | 3.8 |  |
| CC[C@H](C)[C@H](NC(=O)[C@@H](NC(=O)[C@H](C)N)C(C)C)C(=O)N[C@H](C(=O)N[C@@H](C)C(=O)N[C@@H](CCC(N)=O)C(=O)N[C@@H](CCCCN)C(=O)N[C@@H](CO)C(=O)N[C@@H](CCC(=O)O)C(=O)O)[C@@H](C)CC | 3.5 | 44.2 |  |  |
| CC(CNC(=O)[C@@H]1CCCN1C(=O)[C@@H](NC(=O)[C@H](C)N)C(C)C)c1ccccc1 (stereo partly drawn) [AVPX31] |  |  | 4.7 |  |
| CC(C)[C@H](NC(=O)[C@H](C)N)C(=O)N1CCC[C@H]1C(=O)N[C@@H](Cc1ccc(N)cc1)C(=O)N[C@@H](C)C(=O)N[C@@H](CCC(N)=O)C(=O)N[C@@H](CCCCN)C(=O)N[C@@H](CO)C(=O)N[C@@H](CCC(=O)O)C(=O)O [AVPX4AQKSE] | 0.55 | 71.7 |  | 2 |
| CC[C@H](C)[C@H](NC(=O)[C@@H]1CCCN1C(=O)[C@H](Cc1ccc(O)cc1)NC(=O)[C@H](C)N)C(=O)N[C@@H](C)C(=O)N[C@@H](CCC(N)=O)C(=O)N[C@@H](CCCCN)C(=O)N[C@@H](CO)C(=O)N[C@@H](CCC(=O)O)C(=O)O | 1.6 | 26.7 |  |  |
| CC(C)[C@H](NC(=O)[C@H](C)N)C(=O)N1CCC[C@H]1C(=O)NCCc1cccc(F)c1 [AVPX37] |  |  | 7.3 |  |
| CC[C@H](C)[C@H](NC(=O)[C@@H]1CCCN1C(=O)[C@H](Cc1c[nH]c2ccccc12)NC(=O)[C@H](C)N)C(=O)N[C@@H](C)C(=O)N[C@@H](CCC(N)=O)C(=O)N[C@@H](CCCCN)C(=O)N[C@@H](CO)C(=O)N[C@@H](CCC(=O)O)C(=O)O | 1.9 | 45.8 |  |  |
| CC[C@H](C)[C@H](NC(=O)[C@@H]1CCCN1C(=O)[C@H](Cc1c[nH]cn1)NC(=O)[C@H](C)N)C(=O)N[C@@H](C)C(=O)N[C@@H](CCC(N)=O)C(=O)N[C@@H](CCCCN)C(=O)N[C@@H](CO)C(=O)N[C@@H](CCC(=O)O)C(=O)O | 2.4 | 38.1 |  |  |
| CCOc1ccccc1CCNC(=O)[C@@H]1CCCN1C(=O)[C@@H](NC(=O)[C@H](C)N)C(C)C [AVPX40] |  |  | 6.3 |  |
| CC[C@H](C)[C@H](NC(=O)[C@@H]1CCCN1C(=O)[C@H](CC(C)C)NC(=O)[C@H](C)N)C(=O)N[C@@H](C)C(=O)N[C@@H](CCC(N)=O)C(=O)N[C@@H](CCCCN)C(=O)N[C@@H](CO)C(=O)N[C@@H](CCC(=O)O)C(=O)O | 1.7 | > 300 |  |  |
